Among the data in patent publication US10196373B2, “Substituted 2-hydroxy-4-(2-(phenylsulfonamido)acetamido)benzoic acid analogs as inhibitors of STAT protein” (University of Central Florida Research Foundation, Inc., priority 2010, dated 2019) are IC50 values, retold here.

Protein sequences, listed by entry. Tags and fused reporters are not part of them. Residues count along the entry.
UniProt P42227, 2-770 limits assumed: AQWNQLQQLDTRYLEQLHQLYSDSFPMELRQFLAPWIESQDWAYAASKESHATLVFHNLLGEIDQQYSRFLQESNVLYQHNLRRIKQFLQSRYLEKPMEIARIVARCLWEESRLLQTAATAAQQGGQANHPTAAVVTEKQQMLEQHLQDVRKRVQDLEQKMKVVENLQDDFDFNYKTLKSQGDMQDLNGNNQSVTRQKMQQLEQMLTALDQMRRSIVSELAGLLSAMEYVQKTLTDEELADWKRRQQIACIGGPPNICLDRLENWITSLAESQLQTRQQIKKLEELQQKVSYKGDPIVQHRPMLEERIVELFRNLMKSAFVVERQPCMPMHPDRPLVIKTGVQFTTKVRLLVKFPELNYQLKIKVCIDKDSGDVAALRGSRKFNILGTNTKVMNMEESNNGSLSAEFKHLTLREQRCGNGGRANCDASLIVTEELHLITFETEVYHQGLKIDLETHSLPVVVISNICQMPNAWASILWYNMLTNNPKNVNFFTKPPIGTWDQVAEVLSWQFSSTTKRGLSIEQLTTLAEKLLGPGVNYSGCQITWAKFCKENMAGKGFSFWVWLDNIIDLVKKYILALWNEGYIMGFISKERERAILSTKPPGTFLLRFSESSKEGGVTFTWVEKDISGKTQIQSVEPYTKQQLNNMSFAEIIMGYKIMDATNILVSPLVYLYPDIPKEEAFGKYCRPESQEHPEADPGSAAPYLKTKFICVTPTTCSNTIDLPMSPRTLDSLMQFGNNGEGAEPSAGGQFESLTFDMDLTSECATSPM

The experiment concerns the target STAT3 (Mus musculus, UniProt P42227). Put plainly: Stat3 DNA-binding activity, electrophoretic mobility shift assay (EMSA) with nuclear extracts. The conditions noted are these: inhibition of STAT3 activity in an EMSA. The format is biochemical.

As for `CN(CC(=O)N(Cc1ccc(C2CCCCC2)cc1)c1ccc(C(=O)O)c(O)c1)S(=O)(=O)c1ccc(Br)cc1` [Compound 45J], the IC50 (commonly the concentration needed to halve the response being measured) came to 90.3 ± 4.5 µM. Take `CN(C)c1cccc2c(S(=O)(=O)N(C)CC(=O)N(Cc3ccc(C4CCCCC4)cc3)c3ccc(C(=O)O)c(O)c3)cccc12` [Compound 45G, 4-(N-(4-cyclohexylbenzyl)-2-(5-(dimethylamino)-N-methylnaphthalene-1-sulfonamido)acetamido)-2-hydroxybenzoic acid]: the IC50 is 28.8 ± 1.9 µM.
